# TDP1 block: TDP1 (human) enzyme inhibition | Potency, µM (top dose mostly 130 µM), without a hit: at the top dose activity change, negative = inhibition, hits mostly inhibitors | Q9NUW8 | AID 485290 | recombinant TDP1, AlphaScreen DNA substrate cleavage | 350,000 compounds, 0.28% hits; note: potency is the fitted concentration of half-maximal effect; % is set by controls: 0 for no effect and ±100 for the full control effect; nearly all actives have a fitted effect of over 40% in size
#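 AlphaScreen read-out: signal falls as enzyme removes the 3' tyrosine-FITC from a 5'-biotinylated DNA oligo (15 nM, 5 min, RT). Enzyme was E. coli-made recombinant Tdp1 at 1 nM, exposed to compound for 15 min beforehand; beads 10 ug/ml, 10 min.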
# miR-21 reporter: miR-21 reporter, rising signal; HeLa miR-21 FLuc reporter, luciferase, 48 h; Potency, µM (titrated, usually from 38.3 µM), without a hit: top-dose reporter change, positive = more light; AID 2288; 340,000 tested, under 10 active; active = well fitted rising curve with a large enough effect; inconclusive = small, poorly fitted or top-dose-only effect; inactive = no such curve, though single readings can be large or run the other way;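 further: % of control where 0% means no effect; miR-21 action dims this reporter so a rising signal means less miR-21 action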
#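 HeLa cells stably expressing CMV-driven firefly luciferase with a downstream miR-21 binding sequence, endogenously expressing miR-21, were treated with titrations (up to about 40uM final) for 48 hours at 37 degree Celsius. Luciferase luminescence was read after lysis.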
# DT40 TDP1 no CPT: qHTS for Inhibitors of human tyrosyl-DNA phosphodiesterase 1 (TDP1): qHTS in cells in absence of CPT. DT40 Tdp1-/- hTDP1 cells, no CPT, ATP luminescence, 48 h. Potency, µM (titrated, usually from 46.2 µM), for inactives: at the highest dose activity change, negative = growth inhibition, actives largely listed as inhibitors. 420,000 compounds, 15% hits; note: potency is the fitted concentration of half-maximal effect; % is set by controls: 0 for no effect and ±100 for the full control effect; nearly all actives have a fitted effect of over 55% in size
#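 Readout: luminescence from CellTiter-Glo after 30 min in the dark at RT. Cells: DT40 Tdp1-/- with stable hTDP1, 400/well. Exposure: compounds alone, ≥48 hr, 37 °C.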
# TDP1 cell CPT: DT40-hTDP1 cell growth loss with CPT; chicken DT40 Tdp1-/-;hTDP1 cells + 20 nM CPT, ATP luminescence, 48 h; Potency, µM (doses to about 46.2 µM), without a hit: at the top dose activity change, negative = growth inhibition, actives largely listed as inhibitors; 420,000 compounds, 12% hits; AID 686979; note: potency is the fitted concentration of half-maximal effect; % is set by controls: 0 for no effect and ±100 for the full control effect; nearly all actives have a fitted effect of over 55% in size
#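 Chicken DT40 Tdp1-/- cells complemented with human TDP1, 400 cells/well, exposed to compounds plus 20 nM camptothecin for at least 48 h at 37 C; viability read as ATP content by CellTiter-Glo luminescence.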
# uPA generation: blocks generation of uPA at the cell surface | cell surface uPA generation assay, qHTS | Potency, µM (highest dose often 38.3 µM), inactives show top-dose activity change, negative = inhibition, usual class: inhibitors | 330,000 compounds, 0.31% hits | AID 540303; active = well fitted inhibition curve with a large enough effect; inconclusive = small, poorly fitted or top-dose-only effect; inactive = no such curve, though single readings can be large or run the other way; tested in mouse RAW 264.7 cells; note: potency is the fitted concentration of half-maximal effect; % is set by controls: 0 for no effect and ±100 for the full control effect; nearly all actives have a fitted effect of over 55% in size
# Numbers without * were called inactive; u = inconclusive; x = no result given; [ ] = remark or other dose. Hits are enriched below; roughly 16% of the tested compounds scored in any of these assays. Unless noted, calls come from the whole dose curve; as a rule, active = well fitted curve in the direction sought with a large enough effect; inconclusive = small, poorly fitted or top-dose-only effect, or another doubt; inactive = no such curve, though single readings can be large; an effect the other way counts as inactive or inconclusive.
SMILES,TDP1 block,miR-21 reporter,DT40 TDP1 no CPT,TDP1 cell CPT,uPA generation
CC(=O)C1=C(c2ccccc2)NC(=O)NC1c1ccc(O)c(Cl)c1 (configuration not stated),x,1%,-4%,28%,3%
N#Cc1ccccc1OCC(=O)Nc1cccc(S(=O)(=O)N2CCCCCC2)c1,0%,x,21µM*,u,-17%
Cc1ccc(OCC(=O)Nc2cccc(S(=O)(=O)N3CCCC3)c2)cc1C,x,x,u,-28%,x
CCOc1ccccc1OCC(=O)Nc1cccc(S(=O)(=O)N2CCCCCC2)c1,-4%,x,u,u,-3%
CC(=O)c1ccc(OCC(=O)Nc2cccc(S(=O)(=O)N3CCCC3)c2)cc1,3%,x,9.2µM*,8.2µM*,-3%
Cc1ccc2cccc(OCC(=O)Nc3cccc(S(=O)(=O)N4CCCC4)c3)c2n1,2%,x,16µM*,21µM*,-18%
O=C(COc1ccc2ccc(=O)oc2c1)Nc1ccc(N2CCOCC2)cc1,5%,-2%,u,-16%,6%
O=C(COc1ccc2ccc(=O)oc2c1)Nc1cccc(S(=O)(=O)N2CCCCC2)c1,-3%[56.1 µM],x,12µM*,u,-4%
Cc1ccsc1C(=O)N1CCC1(C)C(=O)NS(=O)(=O)c1ccc(C#N)cc1 (configuration not stated),x,x,-14%,3%,x
COc1ccc(OCCn2ccnc2)cc1,x,-3%,8%,4%,16%

# 2 entries from above, reformatted.
structure | TDP1 block | miR-21 reporter | DT40 TDP1 no CPT | TDP1 cell CPT | uPA generation
O=C(COc1ccc2ccc(=O)oc2c1)Nc1cccc(S(=O)(=O)N2CCCCC2)c1 | -3%[56.1 µM] | x | 12µM* | u | -4%
Cc1ccc2cccc(OCC(=O)Nc3cccc(S(=O)(=O)N4CCCC4)c3)c2n1 | 2% | x | 16µM* | 21µM* | -18%

# (next part)
SMILES,TDP1 block,miR-21 reporter,DT40 TDP1 no CPT,TDP1 cell CPT,uPA generation
Cc1ccc(NC(=O)CSc2nnc(-c3ccoc3C)n2CCCN(C)C)cc1Cl,1%,-10%,-11%,-6%,0%
O=C(Cc1cccs1)NNC(=S)NC(=O)c1ccccc1,11%,-17%,15µM*,u,2%
O=C(Cc1cccs1)NNC(=S)NC(=O)c1ccc(F)c(F)c1,3%,-14%,u,21µM*,0%
C[C@@H]1CN([C@@H](C)CO)C(=O)CCCn2nncc2CO[C@H]1CN(C)C(=O)Nc1ccccc1F,x,x,-18%,-8%,x
COC(=O)c1ccc(N2CCN(C)CC2)c(NC(=O)COc2ccccc2Cl)c1,x,-4%,23µM*,21µM*,-2%
COC(=O)c1ccc(N2CCN(C)CC2)c(NC(=O)COc2ccc(OC)cc2)c1,6%,-2%,-25%,21µM*,-2%
COC(=O)c1ccc(N2CCN(C)CC2)c(NC(=O)COc2ccc(C)cc2)c1,1%,-4%,-16%,u,2%
COC(=O)c1ccc(N2CCN(C(C)=O)CC2)c(NC(=O)COc2ccccc2C)c1,2%,3%,-23%,-28%,-4%
CCOC(=O)c1c(NC(=O)C2CCCN2S(=O)(=O)c2cccc3nsnc23)sc(C)c1C (configuration not stated),x,x,u,u,7%
O=C(Nc1nccs1)C(Br)C(Br)c1ccccc1 (configuration not stated),x,-10%,21µM*,10µM*,-9%

# Part of the list above, with values under each structure.
# Fields – TDP1 block, miR-21 reporter, DT40 TDP1 no CPT, TDP1 cell CPT, uPA generation
> O=C(Cc1cccs1)NNC(=S)NC(=O)c1ccc(F)c(F)c1
 : 3%, -14%, u, 21µM*, 0%
> C[C@@H]1CN([C@@H](C)CO)C(=O)CCCn2nncc2CO[C@H]1CN(C)C(=O)Nc1ccccc1F
 : x, x, -18%, -8%, x
> COC(=O)c1ccc(N2CCN(C)CC2)c(NC(=O)COc2ccccc2Cl)c1
 : x, -4%, 23µM*, 21µM*, -2%

# (listing goes on)
SMILES,TDP1 block,miR-21 reporter,DT40 TDP1 no CPT,TDP1 cell CPT,uPA generation
CC(=O)OC(C(=O)Nc1nccs1)c1ccccc1 (configuration not stated),5%,0%,1%,u,-5%
COC(=O)Cc1coc2cc(OC)ccc12,-3%,x,0%,-28%,10%
Cc1cccc2sc(NNC(=O)C3=COCCO3)nc12,-6%,-20%,u,13µM*,-8%
O=C(NC1CC1)c1cc(-c2ccco2)nc2ccccc12,4.5µM*,1%,9%,-3%,-2%
Cc1cc(C(=O)Nc2nc3c(C)cccc3s2)c(C)o1,4%,-17%,-27%,-26%,7%
Cc1cccc2sc(NNC(=O)c3cc(-c4cccs4)nc4ccccc34)nc12,4%,19%,4.1µM*,4.1µM*,u
O=C(O)c1cc(-c2ccco2)nc2ccccc12,x,-4%,0%,-4%,-6%
COc1ccc(-c2cc(C(=O)Nc3nc4c(C)cccc4s3)c3ccccc3n2)cc1OC,6%,1%,21µM*,16µM*,11%
NC(=S)c1ccc(OCCCc2ccccc2)cc1,x,x,u,-19%,x
COc1cccc(-c2cc(C(=O)Nc3ccc4c(c3)OCCO4)c3ccccc3n2)c1,3%,-11%,x,x,x
